Here are results for one molecule from ChEMBL document CHEMBL1136631, “Bis-sulfonamides as endothelin receptor antagonists” (Bioorg Med Chem Lett, 2003).

Amino acid sequences for entries named in this document (tags omitted).
UniProt P25101, whole entry: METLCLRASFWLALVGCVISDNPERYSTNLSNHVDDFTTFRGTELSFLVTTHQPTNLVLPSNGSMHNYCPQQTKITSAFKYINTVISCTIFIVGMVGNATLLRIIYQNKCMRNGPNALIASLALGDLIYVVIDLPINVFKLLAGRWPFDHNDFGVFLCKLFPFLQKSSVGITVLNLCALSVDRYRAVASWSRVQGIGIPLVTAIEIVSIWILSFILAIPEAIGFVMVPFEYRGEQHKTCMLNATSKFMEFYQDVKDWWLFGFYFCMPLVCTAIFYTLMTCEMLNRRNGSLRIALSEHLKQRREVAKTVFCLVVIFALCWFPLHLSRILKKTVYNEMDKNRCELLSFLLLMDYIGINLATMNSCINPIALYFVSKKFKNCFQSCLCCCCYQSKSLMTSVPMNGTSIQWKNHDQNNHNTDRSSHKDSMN

The assay addresses Endothelin-1 receptor (Homo sapiens, UniProt P25101). The assay can be described thus: Inhibitory concentration required against [125I]ET1 binding to membranes of CHO cells expressing human ETA receptor. In kind it is cell membranes.

The structures appear in SMILES notation.

`COc1ccccc1Oc1c(NS(=O)(=O)c2ccc(C)cn2)nc(-c2ccncc2)nc1OCCNS(=O)(=O)c1ccc(C)cc1` returned an IC50 of 2190 nM.
